# Assay results: patent publication US20130045162A1, “DELIVERY SYSTEM FOR SPECIFICALLY TARGETING CANCER CELLS AND METHOD OF USE THEREOF” (MOREHOUSE SCHOOL OF MEDICINE, priority 2011, published 2013)
# Conditions: 10 mg/kg/week
structure (smiles),measurement,value
O=C1[O][Pt]2([NH][C@@H]3CCCC[C@H]3[NH]2)[O]C1=O [oxaliplatin],"liver and kidney toxicities (elevated AST & ALT, hypocalcemia and hypoglycemia)",significant liver and kidney toxicities
